Measured values from patent publication US6898533B1, “Methods for predicting the biological, chemical, and physical properties of molecules from their spectral properties” (The United States of America as represented by the …, priority 2000, dated 2005).

By UniProt entry, the sequences of proteins in these tests, tags left out.
UniProt Q62986, whole entry: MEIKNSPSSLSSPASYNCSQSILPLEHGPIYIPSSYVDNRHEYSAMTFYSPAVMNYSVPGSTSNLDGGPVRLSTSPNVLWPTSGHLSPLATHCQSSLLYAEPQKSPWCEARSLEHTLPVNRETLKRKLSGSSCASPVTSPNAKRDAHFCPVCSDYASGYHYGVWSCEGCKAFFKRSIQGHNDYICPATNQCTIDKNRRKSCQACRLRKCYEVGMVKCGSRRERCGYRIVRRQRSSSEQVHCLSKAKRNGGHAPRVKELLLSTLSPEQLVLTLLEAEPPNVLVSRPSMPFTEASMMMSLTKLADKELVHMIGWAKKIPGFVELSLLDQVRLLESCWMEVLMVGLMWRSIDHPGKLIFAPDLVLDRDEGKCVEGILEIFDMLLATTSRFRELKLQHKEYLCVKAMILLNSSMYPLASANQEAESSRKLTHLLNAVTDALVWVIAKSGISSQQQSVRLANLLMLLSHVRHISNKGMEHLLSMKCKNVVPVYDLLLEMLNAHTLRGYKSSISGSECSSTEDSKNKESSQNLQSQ

How the values were obtained:
estrogen receptor = estrogen receptor relative binding affinity, expanded training set of 107 compounds; conditions: input class, 107-compound training set
[1] = target: beta (ERβ) estrogen receptor (Rattus norvegicus, UniProt Q62986); conditions: cited from earlier work

Compound | Class (estrogen receptor) | Log-(RBA) beta [1]
C[C@]12CC[C@@H]3c4cc(O)c(O)cc4CC[C@H]3[C@@H]1CC[C@@H]2O [2-hydroxy-estradiol] | S (strong estrogen receptor binders were defined as having log(RBA)>−0.25) | 1.04
C[C@]12CC[C@@H]3c4ccc(O)cc4CC[C@H]3[C@@H]1CC[C@@H]2O [17β-Estradiol] | – | 2.00
